Species: Homo sapiens
Experiment: Selectivity for IKK-beta over IKKalpha

Cc1cnc2c(NCCN)nc3cc(-c4ccccc4)sc3n12
Ratio IC50: > 10
